Reference: US12565505B2, “mTORC modulators and uses thereof” (Aeovian Pharmaceuticals, Inc., priority 2019, dated 2026)

Legend:
[1] = molecular target: mTORC2 (Homo sapiens, UniProt P42345+P62942); assay: Inhibition assay for mTORC2: phosphorylation of pAkt at Ser473, AlphaLISA SureFire in PC3 cells; format: cell-based; conditions: 24 hours treatment, analogs substituted at C40 and C16 (C16 diastereomer mixtures not isolated)
[2] = molecular target: mTORC1 (Homo sapiens, UniProt P42345+P62942); assay: Inhibition assay for mTORC1: phosphorylation of pS6K at Thr389, AlphaLISA SureFire in PC3 cells; format: cell-based; conditions: 24 hours treatment, analogs substituted at C40 and C16 (C16 diastereomer mixtures not isolated)

Row | Compound | pIC50 mTORC2 [1] | pIC50 mTORC1 [2]
1 | CO[C@@H]1C[C@H](C[C@@H](C)[C@@H]2CC(=O)[C@H](C)/C=C(\C)[C@@H](O)[C@@H](OC)C(=O)[C@H](C)C[C@H](C)/C=C/C=C/C=C(\C)C(OC[C@@H](C)O)C[C@@H]3CC[C@@H](C)[C@@](O)(O3)C(=O)C(=O)N3CCCC[C@H]3C(=O)O2)CC[C@H]1OCCCO (stereo partly drawn) | A (PIC50 for mTORC2 of <5 as A) | B (8.5 to 9.5 as B)
2 | CO[C@@H]1C[C@H](C[C@@H](C)[C@@H]2CC(=O)[C@H](C)/C=C(\C)[C@@H](O)[C@@H](OC)C(=O)[C@H](C)C[C@H](C)/C=C/C=C/C=C(\C)C(OCCCO)C[C@@H]3CC[C@@H](C)[C@@](O)(O3)C(=O)C(=O)N3CCCC[C@H]3C(=O)O2)CC[C@H]1OCCCO (stereo partly drawn) | A (PIC50 for mTORC2 of <5 as A) | –
